Reference: patent US12492193B2, “Pyrazole derivatives for the treatment of cystic fibrosis” (Fondazione Istituto Italiano Di Tecnologia, priority 2017, dated 2025)

The chains behind the UniProt entries cited, without tags or fusion partners. A line that says so, or that is headed by a name, gives the form on record, which may keep a tag or linker. Residues count along the entry.
UniProt P13569, 1-1480 with tags or gaps DEL508-508: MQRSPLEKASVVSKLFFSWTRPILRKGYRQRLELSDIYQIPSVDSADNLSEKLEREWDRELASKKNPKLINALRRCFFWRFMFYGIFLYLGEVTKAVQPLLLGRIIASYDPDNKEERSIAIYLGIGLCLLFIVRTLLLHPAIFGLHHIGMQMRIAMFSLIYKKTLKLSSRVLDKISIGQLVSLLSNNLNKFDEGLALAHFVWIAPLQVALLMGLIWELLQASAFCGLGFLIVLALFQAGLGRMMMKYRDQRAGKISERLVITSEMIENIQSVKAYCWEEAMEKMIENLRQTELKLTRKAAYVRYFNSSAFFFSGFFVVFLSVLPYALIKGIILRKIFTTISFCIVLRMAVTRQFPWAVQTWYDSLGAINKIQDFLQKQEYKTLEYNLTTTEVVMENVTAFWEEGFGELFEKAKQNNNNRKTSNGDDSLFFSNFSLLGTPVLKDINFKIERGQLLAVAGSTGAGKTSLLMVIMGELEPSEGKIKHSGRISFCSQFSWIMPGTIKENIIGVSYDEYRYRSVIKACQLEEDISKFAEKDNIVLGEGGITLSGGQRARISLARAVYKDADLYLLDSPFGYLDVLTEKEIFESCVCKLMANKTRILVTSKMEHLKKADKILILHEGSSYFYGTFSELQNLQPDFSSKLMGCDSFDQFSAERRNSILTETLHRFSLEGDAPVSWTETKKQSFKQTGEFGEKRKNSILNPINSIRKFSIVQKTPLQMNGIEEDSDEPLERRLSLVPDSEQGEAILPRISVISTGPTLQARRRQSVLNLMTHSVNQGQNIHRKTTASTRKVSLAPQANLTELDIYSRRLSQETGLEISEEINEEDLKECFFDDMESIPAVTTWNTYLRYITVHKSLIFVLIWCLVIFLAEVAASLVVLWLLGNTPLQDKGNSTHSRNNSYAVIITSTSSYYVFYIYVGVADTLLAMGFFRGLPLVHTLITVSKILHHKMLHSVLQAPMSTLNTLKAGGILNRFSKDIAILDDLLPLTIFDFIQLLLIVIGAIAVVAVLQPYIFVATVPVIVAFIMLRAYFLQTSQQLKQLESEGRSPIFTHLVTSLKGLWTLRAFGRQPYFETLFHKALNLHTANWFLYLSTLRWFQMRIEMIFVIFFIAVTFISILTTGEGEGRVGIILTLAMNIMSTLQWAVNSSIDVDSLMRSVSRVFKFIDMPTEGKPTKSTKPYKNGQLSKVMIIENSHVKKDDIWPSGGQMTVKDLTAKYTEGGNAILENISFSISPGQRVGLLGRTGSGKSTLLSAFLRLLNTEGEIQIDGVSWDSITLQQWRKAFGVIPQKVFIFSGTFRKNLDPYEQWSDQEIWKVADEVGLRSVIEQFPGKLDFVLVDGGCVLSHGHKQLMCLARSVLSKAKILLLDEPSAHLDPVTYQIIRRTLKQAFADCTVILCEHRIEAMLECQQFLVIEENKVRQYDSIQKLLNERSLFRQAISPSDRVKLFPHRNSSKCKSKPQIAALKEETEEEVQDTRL

Columns and labels:
[1] = biological target: mutant CFTR (Homo sapiens, UniProt P13569, DEL508-508); assay: Fluorescence (HS-YFP) assay for CFTR activity, corrector assay; assay type: cell-based
[2] = biological target: T1, F508del-CFTR (Homo sapiens, UniProt P13569, DEL508-508); details: compounds tested at 5.0 μM, 24 hrs, FRT cells expressing F508del-CFTR; table 2
[3] = biological target: T1, F508del-CFTR; assay: Short-circuit current recordings on human bronchial epithelial cells (F508del/F508del); assay type: cell-based; details: HBE cells from CF patients (F508del/F508del), 24 hrs treatment; table 3

Compound	EC50 [1]	Corrector activity (ΔTEEC) [2]	activity on HBE cells (ΔICFTR) [3]
CCOc1c(Cl)c(C(F)(F)F)nn1-c1cccc(C(=O)N(C)c2ccc3c(c2)OCO3)c1	1000 to 2000 nM	+ (ΔTEEC<2000 μS)	+ (ΔICFTR<2.0 μA)
Cc1nc2cc(F)c(N(C)C(=O)c3cccc(-n4nc(C(F)(F)F)cc4COc4ccc(C(=O)O)cc4)c3)cc2o1	< 1000 nM		
CN(C(=O)c1cccc(-n2nc(C(F)(F)F)c(C#N)c2OCc2ccc(C(=O)O)cc2)c1)c1ccc2c(c1)OC(F)(F)O2	< 1000 nM		
